# Target: GLP-1R (Homo sapiens, UniProt P43220)
# Chains of the proteins cited; added tags and fusions are not shown. Residues count along the entry.
# UniProt P43220, 24-463: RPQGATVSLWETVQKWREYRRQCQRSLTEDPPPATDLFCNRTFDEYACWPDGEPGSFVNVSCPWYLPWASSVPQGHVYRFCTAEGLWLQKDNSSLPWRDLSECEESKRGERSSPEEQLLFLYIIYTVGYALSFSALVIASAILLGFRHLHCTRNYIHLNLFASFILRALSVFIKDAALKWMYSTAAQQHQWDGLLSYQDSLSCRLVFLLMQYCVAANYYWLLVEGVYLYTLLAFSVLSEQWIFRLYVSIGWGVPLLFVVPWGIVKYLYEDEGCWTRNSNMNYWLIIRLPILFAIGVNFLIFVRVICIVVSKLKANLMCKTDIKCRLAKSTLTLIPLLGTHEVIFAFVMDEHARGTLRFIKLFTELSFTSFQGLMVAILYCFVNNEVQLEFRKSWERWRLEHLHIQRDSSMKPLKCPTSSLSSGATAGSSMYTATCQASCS
# Assay: cAMP activation in DiscoveRx GLP-1R reporter cells
# Assay type: cell-based
# Settings: GLP-1R cAMP EC50 relative to GLP-1-F7
smiles,measurement,value
CC[C@H](C)[C@H](NC(=O)[C@H](Cc1ccccc1)NC(=O)[C@H](CCC(=O)O)NC(=O)[C@H](CCCCN)NC(=O)[C@H](C)NC(=O)[C@H](C)NC(=O)[C@H](CCC(N)=O)NC(=O)CNC(=O)[C@H](CCC(=O)O)NC(=O)[C@H](CC(C)C)NC(=O)[C@H](Cc1ccc(O)cc1)NC(=O)[C@H](CO)NC(=O)[C@H](CO)NC(=O)[C@@H](NC(=O)[C@H](CC(=O)O)NC(=O)[C@H](CO)NC(=O)[C@@H](NC(=O)[C@H](Cc1ccccc1)NC(=O)[C@@H](NC(=O)CNC(=O)[C@H](CCC(=O)O)NC(=S)[C@H](C)NC(=O)[C@@H](N)Cc1ccccc1)[C@@H](C)O)[C@@H](C)O)C(C)C)C(=O)N[C@@H](C)C(=O)N[C@@H](Cc1c[nH]c2ccccc12)C(=O)N[C@@H](CC(C)C)C(=O)N[C@H](C(=O)N[C@@H](CCCCN)C(=O)NCC(=O)N[C@@H](CCCNC(=N)N)C(N)=O)C(C)C [GLP-1-F7A^S8],"Fold less potent than GLP-1-F7, cAMP activation",16 fold

# From paper PMC7744120 (Journal of the American Chemical Society, 2017)
